What is called inhibition is the change of the read-out against control, counted positive when it falls.

One experiment deals with Glycine max lipoxygenase. As to the kind of experiment: Inhibitory activity against soybean 15-lipoxygenase was evaluated at 100 uM.
The next experiment has as its system Ovis aries COX-1. As to the kind of experiment: Inhibitory activity against sheep seminal vesicle cyclooxygenase was evaluated at 300 uM.

On to `O=C1CCCN(c2ccccc2)N1`, for which the results for the inhibition in the experiment on Glycine max lipoxygenase and in the experiment on Ovis aries COX-1 were 25% and 5%, respectively.

(Values after ChEMBL document CHEMBL1152112, “1-Phenyl-[2H]-tetrahydropyridazin-3-one, A-53612, a selective orally active 5-lipoxygenase inhibitor” (Bioorg Med Chem Lett, 1992).)
